Literature values in PMC4646965.

Molecular target: rhodopsin (UniProt P02699)

Rac1 (from UniProt P63000)
Kd: 1300 nM
